These are literature values, as cited in article PMC4734687, “Peptide-Based Optical uPAR Imaging for Surgery: In Vivo Testing of ICG-Glu-Glu-AE105” (PLoS ONE, 2016).

Amino acid sequences for entries named in this document (tags omitted). Residues count along the entry.
UniProt Q03405, 23-305 limits assumed: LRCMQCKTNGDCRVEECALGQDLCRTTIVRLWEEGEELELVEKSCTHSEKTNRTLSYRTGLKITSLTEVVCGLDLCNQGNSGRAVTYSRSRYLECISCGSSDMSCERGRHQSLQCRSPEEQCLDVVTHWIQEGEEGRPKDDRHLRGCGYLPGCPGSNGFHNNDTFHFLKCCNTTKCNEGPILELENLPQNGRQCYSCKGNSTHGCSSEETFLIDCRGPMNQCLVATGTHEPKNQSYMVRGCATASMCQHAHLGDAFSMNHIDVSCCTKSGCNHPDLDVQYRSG

The series has as its target uPAR (Homo sapiens, UniProt Q03405). The note with it: read-out: IC50 for uPAR binding of unmodified AE105; comparison value for unmodified peptide; cited from earlier work. The method, then: Photophysical properties of ICG-Glu-Glu-AE105 was compared to ICG. The absorption spectrum of ICG-AE105 was slightly broadened as compared to the absorption spectrum of ICG, while the fluorescence and excitation spectra were identical for ICG and ICG-AE105 (Fig 1C). Additionally the binding of ICG-Glu-Glu-AE105 to purified uPAR was measured and yielded an IC50 ≈ 134 nM compared to 20 nM for the unmodified AE105 [21] (Fig 1B)

Usually IC50 stands for the midpoint of a concentration-inhibition curve. Take `CC(C)C[C@H](NC(=O)[C@H](Cc1ccc(O)cc1)NC(=O)[C@@H](CCCNC(=N)N)NC(=O)[C@@H](CO)NC(=O)[C@H](Cc1ccccc1)NC(=O)[C@H](CC1CCCCC1)NC(=O)[C@@H](N)CC(=O)O)C(=O)N[C@@H](Cc1c[nH]c2ccccc12)C(=O)N[C@@H](CO)C(=O)O`: the IC50 is 20 nM.
